Laboratory results from PubChem BioAssay AID705 (SRMLSC, 2007).
Only a part is listed here, and it is no random draw. Calls of active or inactive are those of the source.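 How the source made its calls: active means growth inhibition above 25% in both replicates, a cutoff set 3 SD above the mean; inconclusive means above 25% in only one replicate; inactive means the rest.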

Assay: S. cerevisiae growth inhibition in permissive medium (OD615), pilot counter-assay for S. cerevisiae lifespan shortening project, permissive growth control (AID 705)
Conditions: OD615, 24 h, at 10 µM, active compounds read high
Method in brief: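 Timing: 24 h exposure, 30 °C / Material: Saccharomyces cerevisiae strain carrying genetically modified DeaD replicative-lifespan system / Signal: OD at 615 nm / Compound: 10 µM single dose, 0.25% DMSO / Medium: SC raffinose/galactose permissive medium / Evaluation: reduction in yeast growth (OD615)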
For `Fc1ccccc1NC1CCN(Cc2ccccc2)CC1`, the growth inhibition was inactive: -6%.
